Only a part is listed here, and it is no random draw. Calls of active or inactive are those of the source.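 The calls were made as follows: active = compounds whose signal lies at least 3.5 SD above the mean of all wells on their plate; inactive = the rest.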

A short description of the test: inducers of MIN6 beta-cell proliferation, primary screen, ATP luminescence, uHTS (AID 2380).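 Also: 0% = DMSO-treated cells in low-serum medium and 100% = 10% serum control.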 The conditions noted are these: MIN6 cells proliferation, ATPlite luminescence, 48 h; at 10 µM; hits give high values; 100% = growth in 10% serum; cells starved in 0.2% serum. (Cellular ATP, detected with luciferase, serves as a proxy for viable cell number.)
With `C[C@H]1OP(=O)(Oc2ccccc2)[C@H](O)[C@H](O)[C@H]1N=[N+]=[N-]` (stereo partly specified), the proliferation was inactive: 4.54%.

Values taken from PubChem BioAssay AID2380 (Sanford-Burnham Center for Chemical Genomics, 2010).
